Assay results reported in patent publication US6458834B2, “Pentacyclic triterpenes” (Micro Flo Company, priority 1998, dated 2002).

Target: T1, human leucocyte elastase (Homo sapiens, UniProt P08246)
T1 construct: purchased Elastin Products
T1 sequence (P08246 30-267): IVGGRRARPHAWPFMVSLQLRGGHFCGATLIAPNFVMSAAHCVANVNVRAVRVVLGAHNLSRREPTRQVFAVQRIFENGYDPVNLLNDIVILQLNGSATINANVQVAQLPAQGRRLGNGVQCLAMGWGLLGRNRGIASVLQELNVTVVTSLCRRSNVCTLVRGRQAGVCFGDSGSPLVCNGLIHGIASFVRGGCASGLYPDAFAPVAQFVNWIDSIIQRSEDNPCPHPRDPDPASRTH
Test: Human leucocyte elastase (HLE) inhibition, MeO-Suc-Ala-Ala-Pro-Val-pNA substrate
Type: biochemical
Details: 0.1 M Tris, 0.5 M NaCl, 3% DMSO, pH 7.5; 15 min preincubation at room temperature
Description: Stock solutions were mixed to yield a reaction mixture consisting of 0.5 mM MeO-Suc-Ala-Ala-Pro-Val-pNA (Sigma) and […] human leucocyte elastase (Elastin Products) in 0.1 M Tris, 0.5 M NaCl and 3% DMSO (v/v) at a pH of 7.5. Test compounds were solubilized in DMSO. Equal volumes of enzyme and inhibitor were mixed and allowed to incubate for 15 minutes at room temperature. The reaction was started by the addition of a third equal volume containing substrate. Reactions were carried out in microliter plates.

Echinocystic acid [Example 22]
IC50: 21.1 µM

C[C@H]1[C@H](C)CC[C@]2(C)CC[C@]3(C)C(=CC[C@@H]4[C@@]5(C)CC[C@H](O)C(C)(C)[C@@H]5CC[C@]43C)[C@H]12 [Example 19, α-Amyrin]
IC50: 21.1 µM
